Test results taken from patent US10111893B2, “Calmangafodipir, a new chemical entity, and other mixed metal complexes, methods of preparation, compositions, and methods of treatment” (priority 2012, dated 2018).

Test system: white blood cells (WBC)
Assay: Myelosuppressive effects of oxaliplatin in balb/c mice, cytoprotection
Settings: calmangafodipir 5 mg/kg, MnPLED 1 mg/kg iv; oxaliplatin 12.5 mg/kg

## Cc1ncc(COP(=O)([O-])O)c(CN(CCN(CC(=O)O)Cc2c(COP(=O)([O-])O)cnc(C)c2O)CC(=O)O)c1O.Cc1ncc(COP(=O)([O-])O)c(CN(CCN(CC(=O)O)Cc2c(COP(=O)([O-])O)cnc(C)c2O)CC(=O)O)c1O.Cc1ncc(COP(=O)([O-])O)c(CN(CCN(CC(=O)O)Cc2c(COP(=O)([O-])O)cnc(C)c2O)CC(=O)O)c1O.Cc1ncc(COP(=O)([O-])O)c(CN(CCN(CC(=O)O)Cc2c(COP(=O)([O-])O)cnc(C)c2O)CC(=O)O)c1O.Cc1ncc(COP(=O)([O-])O)c(CN(CCN(CC(=O)O)Cc2c(COP(=O)([O-])O)cnc(C)c2O)CC(=O)O)c1O.[Ca+2].[Ca+2].[Ca+2].[Ca+2].[Mn+2] [calmangafodipir]
  protection from oxaliplatin-induced fall in WBC compared with mangafodipir: statistically significant more efficacious than 1 mg/kg mangafodipir
